Results taken from PubChem BioAssay AID651819 (National Center for Advancing Translational Sciences (NCATS), 2012).
This is a selection; strong and weak results do not stand in their true shares. Activity calls are given as the source filed them. Rule as the data show it: active = activity change below about -30%; inactive = the rest.
% is scaled to controls: 0 for no effect and ±100 for the full control effect.

What follows are compounds tested on cytosolic chaperonin (CCT/TRiC complex) (assay: High-Throughput Screening for Modulators of Cytosolic Chaperonin Activity). Details: purified chaperonin ATPase assay, HTRF ADP detection, 30 min; active compounds read low.
Outline: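 TRiC (40 or 20 nM final, by batch activity) in 30 mM Tris pH 7.4, 100 mM KCl, 5 mM MgCl2, 1 mM DTT was treated with compound at 76 uM single dose, then 10 uM ATP, 30 min at 37 °C. ADP was read by HTRF Transcreener.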
COC(=O)c1cc2c(s1)N=C(c1ccccc1)N(C)P2(=O)N1CCOCC1 (stereo not given) was tested, and the activity change was inactive: -0.116%. Cc1ccc(OP(=O)(Nc2ccccn2)Oc2ccc(C)cc2)cc1 was tested, and the activity change was inactive: -2.26%. With CC(=O)NC(SC(=S)N(CC(C)C)CC(C)C)C(Cl)(Cl)Cl (stereo not given) the activity change was inactive: -1.2%. For CC(C)(C)C(=O)NC(Sc1ccccc1)C(Cl)(Cl)Cl (stereo not given), the activity change was inactive: -1.34%. CCc1cc(O)c([N+](=O)[O-])c(C)c1[N+](=O)[O-] was tested, and the activity change was inactive: -2.5%. With O=P1(Nc2nc3ccc(Cl)cc3s2)COc2ccccc2O1 (stereo not given) the activity change was inactive: -1.11%. CCOc1ccc(C2=NCC(CBr)S2)cc1 (stereo not given) was tested, and the activity change was inactive: -3.45%. For CC(=O)Nc1ccc([As](=O)(O)O)c(O)c1, the activity change was inactive: -1.43%. In the case of CC(=O)Nc1ccc(Oc2c([N+](=O)[O-])cc([N+](=O)[O-])cc2[N+](=O)[O-])cc1, the activity change is reported as inactive: -2.67%. Cc1ccccc1CN(C)C(=O)COC(=O)C(O)(c1ccccc1)c1ccccc1 was tested, and the activity change was inactive: -1.41%. In the case of C[C@H]1OP(=O)(Oc2ccccc2)C[C@@H]2O[C@@H]21 (stereo not given in full), the activity change is reported as inactive: -0.493%. For C[C@@H]1C=CCP(=O)(Oc2ccccc2)O1 (stereo not given in full), the activity change was inactive: -2.6%. With CC(=O)c1ccc(N2CC2c2ccncc2)cc1 (stereo not given) the activity change was inactive: -2.99%. For N#C/C(=C\c1ccc(N(CCBr)CCBr)cc1)C(N)=O, the activity change was inactive: -1.48%. For COC(=O)C1(C)COP(=O)(NCc2ccccc2)OC1 (stereo not given), the activity change was inactive: -3.12%. With CN1CCCC(OC(=O)C(c2ccccc2)c2ccccc2)C1 (stereo not given) the activity change was inactive: -1.18%. In the case of Clc1ccc(Cl)c(NC2=NCC(CBr)S2)c1 (stereo not given), the activity change is reported as inactive: 0.806%. For COc1ccccc1OP(=O)(Nc1ccc(C)cn1)Oc1ccccc1OC, the activity change was inactive: -3.09%. For Cc1ccc(OP(=O)(Nc2nccs2)Oc2ccc(C)cc2)cc1, the activity change was inactive: -1.38%. With CN(C(=O)Cc1ccc(Cl)c(Cl)c1)[C@H]1CCCC[C@H]1N1CCCC1 the activity change was inactive: 0.201%. With Cc1ccc(N/C(=N/P(=O)(N2CCOCC2)N2CCOCC2)N2CCOCC2)cc1 the activity change was inactive: 1.69%. For NC(=O)c1cc([N+](=O)[O-])cc([N+](=O)[O-])c1N, the activity change was inactive: 0.0842%. For O=[N+]([O-])C1C(O)C(O)C([N+](=O)[O-])C(O)C1O (stereo not given), the activity change was inactive: 1.84%. With Oc1ccccc1CNc1ccccn1 the activity change was inactive: -2.02%. For O=C(NC(Sc1ccncn1)C(Cl)(Cl)Cl)c1ccccc1 (stereo not given), the activity change was inactive: -6.29%. For Nc1cc(N)c2nonc2c1[N+](=O)[O-], the activity change was inactive: -0.964%. CC(C)CC(=O)NC(Sc1ccc(Cl)cc1)C(Cl)(Cl)Cl (stereo not given) was tested, and the activity change was inactive: -4.89%. For Cc1cc(SC(NC(=O)c2ccc(F)cc2)C(Cl)(Cl)Cl)ncn1 (stereo not given), the activity change was inactive: 2.14%. For CCOP(=O)(Nc1ccccc1)OCC, the activity change was inactive: 1.02%. In the case of Cc1ccc(NP(=O)(Oc2ccccc2F)Oc2ccccc2F)nc1, the activity change is reported as inactive: -4.85%. CN(C(=O)Cc1ccc(Cl)c(Cl)c1)[C@H]1CCCC[C@@H]1N1CCCC1 was tested, and the activity change was inactive: 3.75%. For O=P(Nc1nc2ccc(Cl)cc2s1)(c1ccccc1)c1ccccc1, the activity change was inactive: 0.267%. CN(C)P(=O)(N(C)C)n1c(Nc2ccccc2)nnc1-c1ccccc1 was tested, and the activity change was inactive: -0.512%. In the case of CC(=O)Nc1ccc([As](=O)(O)O)cc1, the activity change is reported as inactive: -0.253%. In the case of O=C(O)c1ccccc1[As](=O)(O)O, the activity change is reported as inactive: 1.92%. In the case of CCCC1OP(N)(=O)OCC1CC (stereo not given), the activity change is reported as inactive: 0.951%. In the case of Nc1cccc2ccc([As](=O)(O)O)cc12, the activity change is reported as inactive: -0.357%. With CCN(N=Nc1nonc1N)c1nonc1N the activity change was inactive: 1.54%. With O=C(Nc1cc([As](=O)(O)O)ccc1O)c1ccccc1 the activity change was inactive: -2.8%. O=P1(N(CCCl)CCCl)OCCCS1 (stereo not given) was tested, and the activity change was inactive: -0.526%. O=C(O)CNc1ccc([As](=O)(O)O)cc1 was tested, and the activity change was inactive: -4.28%. For COC(=O)C1(C)COP(=O)(Nc2ccccc2)OC1 (stereo not given), the activity change was inactive: 1.19%. In the case of O=[N+]([O-])c1cccc(NC2=NCC(CBr)S2)c1 (stereo not given), the activity change is reported as inactive: -13.2%. In the case of O=[N+]([O-])c1ncn(CCn2ncnc2[N+](=O)[O-])n1, the activity change is reported as inactive: -2.05%. CC(C)(C)C(=O)NC(Sc1ccncn1)C(Cl)(Cl)Cl (stereo not given) was tested, and the activity change was inactive: 0.588%. In the case of Cc1ccc(NP(=O)(Oc2ccccc2)Oc2ccccc2)nc1, the activity change is reported as inactive: -1.84%. In the case of CCc1nc2c(n1)c1c(non1O)c1c2no[n+]1[O-], the activity change is reported as inactive: -0.816%. For O=[N+]([O-])c1cc([N+](=O)[O-])c(CCNc2ccccc2)c([N+](=O)[O-])c1, the activity change was inactive: -0.453%. In the case of O=[N+]([O-])c1cccc2n[nH]nc12, the activity change is reported as inactive: 0.625%. CC(=O)N1C2C3N(C(C)=O)C1C1N(C(C)=O)C(C(N1C(C)=O)N3C(C)=O)N2C(C)=O was tested, and the activity change was inactive: -0.021%. With COc1ccc(C2=NCC(CBr)S2)cc1 (stereo not given) the activity change was inactive: -0.414%. For CC1CCN(C(=O)Oc2c(Cl)cc(Cl)c3cccnc23)CC1, the activity change was inactive: -3.65%. For c1cc(-c2nn[nH]n2)ccc1-c1nn[nH]n1, the activity change was inactive: -1.29%. For CC(C)c1nc(Nc2ccccc2)n(P(=O)(N(C)C)N(C)C)n1, the activity change was inactive: 1.96%. With CC(C)=N/N=C(\N)N[N+](=O)[O-] the activity change was inactive: -0.752%. With CN(C)C(=O)OCCc1n(C)cc[n+]1C the activity change was inactive: -5.15%. CCN(/C(=N/P(=O)(N1CCOCC1)N1CCOCC1)N1CCOCC1)c1ccc(OC)cc1 was tested, and the activity change was inactive: 1.83%. With Nc1ccc([As](=O)(O)c2ccc(N)cc2)cc1 the activity change was inactive: -0.604%. For C[N+]1=C2C=CC=CC=C2SC12C([N+](=O)[O-])=CC([N+](=O)[O-])=C[C-]2[N+](=O)[O-] (stereo not given), the activity change was inactive: 0.0639%. In the case of O=C(O)C(=O)c1ccc(N(CCCl)CCCl)cc1, the activity change is reported as inactive: -2.99%. With O=C(COc1ccccc1)OC1CN2CCC1CC2 (stereo not given) the activity change was inactive: 1.21%. With O=C(Nc1ccncc1[N+](=O)[O-])c1ccc([N+](=O)[O-])cc1[N+](=O)[O-] the activity change was inactive: 0.796%. For COP1(=S)c2c(C)nn(CCC#N)c2N=C(c2ccc(F)cc2)N1C (stereo not given), the activity change was inactive: -1.59%. For COC(=O)C1(C)COP(=O)(N2CCCC2)OC1 (stereo not given), the activity change was inactive: -0.599%. For CCC(C)N(CC(C)C)C(=S)SC(NC(C)=O)C(Cl)(Cl)Cl (stereo not given), the activity change was inactive: 1.52%. With O=C(OC1CN2CCC1CC2)c1cccc([N+](=O)[O-])c1 (stereo not given) the activity change was inactive: -3.37%. With CSc1ccc(Nc2c([N+](=O)[O-])cc([N+](=O)[O-])cc2[N+](=O)[O-])cc1 the activity change was inactive: -0.476%. For CCOC(=O)c1ccc(NC(=O)C(C)(CCl)SC)cc1 (stereo not given), the activity change was inactive: -1.47%. With COP(=O)(OC)N1CC1c1ccccc1 (stereo not given) the activity change was inactive: 0.103%. CCCCOc1ccc(C(=O)NCC2(N3CCCCC3)CCCCC2)cc1OC was tested, and the activity change was inactive: -2.01%. For Cc1cc(SC(NC(=O)c2ccccc2)C(Cl)(Cl)Cl)nc(C(C)C)n1 (stereo not given), the activity change was inactive: 0.954%. For CCOC(=O)Nc1ccc([As](=O)(O)O)c(O)c1, the activity change was inactive: -1.2%. For O=C(O)C(O)c1ccc(N(CCCl)CCCl)cc1 (stereo not given), the activity change was inactive: -3.38%. CC1CCNP(=O)(N(CCCl)CCCl)O1 (stereo not given) was tested, and the activity change was inactive: -0.665%. With O=P(Nc1ccccn1)(c1cccc2ccccc12)c1cccc2ccccc12 the activity change was inactive: -1.49%. Cc1cc(SC(NC=O)C(Cl)(Cl)Cl)ncn1 (stereo not given) was tested, and the activity change was inactive: 0.875%. For O=[N+]([O-])c1ccc(Nc2ccc(Oc3ccc([N+](=O)[O-])cc3[N+](=O)[O-])cc2)c([N+](=O)[O-])c1, the activity change was inactive: -0.958%. CCOC(=O)Nc1cccc([As](=O)(O)O)c1 was tested, and the activity change was inactive: -3.07%. With [N-]=[N+]=NC1CCCCC1NC(=O)c1cc([N+](=O)[O-])cc([N+](=O)[O-])c1 (stereo not given) the activity change was inactive: -1.41%. For Cc1ccc(OP(=O)(Nc2ccc([N+](=O)[O-])cn2)Oc2ccc(C)cc2)cc1, the activity change was inactive: -0.523%. With Cc1ccc2nc3c(c(C)c2c1)CC(C(Cl)Cl)S3 (stereo not given) the activity change was inactive: 1.01%. In the case of C[As](=O)(O)c1cccc(C(=O)O)c1, the activity change is reported as inactive: -2.12%. O=[As](O)(c1ccc(O)cc1)c1ccccc1O was tested, and the activity change was inactive: 0.735%. With O=[N+]([O-])c1ccc(-c2cc([N+](=O)[O-])c(O)c([N+](=O)[O-])c2)cc1 the activity change was inactive: 0.594%. In the case of COc1cc(C(=O)NCC2(N3CCOCC3)CCCCC2)ccc1OCC(C)C, the activity change is reported as inactive: 0.63%. CC(C)NC(=O)NP(=O)(Oc1ccccc1)Oc1ccccc1 was tested, and the activity change was inactive: -0.265%. O=C(OC1CN2CCC1CC2)c1cccc2[nH]cnc12 (stereo not given) was tested, and the activity change was inactive: 1.46%. CCN(CC)C(=S)SC(NC=O)C(Cl)(Cl)Cl (stereo not given) was tested, and the activity change was inactive: -6.13%. In the case of O=[N+]([O-])c1cc([N+](=O)[O-])c(-c2ccn[nH]2)s1, the activity change is reported as inactive: -0.784%. For ClCCSc1nnc(-c2cccnc2)o1, the activity change was inactive: 0.558%. In the case of COC(=O)C1(C)COP(=O)(N2CCCCCC2)OC1 (stereo not given), the activity change is reported as inactive: -0.47%. With CC(C)c1ccc(OP(=O)(Nc2ccccn2)Oc2ccccc2F)cc1 (stereo not given) the activity change was inactive: -1.7%. In the case of O=P1(N(CCCl)CCCl)OCCCN1CCCl (stereo not given), the activity change is reported as inactive: 1.96%. In the case of O=P1(N(CCCl)CCCl)Nc2ccccc2N1, the activity change is reported as inactive: -1.41%. With COc1ccc2nc(NP(=O)(c3ccccc3)c3ccccc3)sc2c1 the activity change was inactive: 0.922%. With COc1cc(I)ccc1[As](=O)(O)O the activity change was inactive: 0.923%. In the case of Cc1c2c(nc3ccccc13)SC(C(Cl)Cl)C2 (stereo not given), the activity change is reported as inactive: -0.305%. For O=C(OC1CN2CCC1CC2)C12CC3CC(CC(C3)C1)C2 (stereo not given), the activity change was inactive: -1.93%. Cc1cc(=O)[nH]c(N[N+](=O)[O-])n1 was tested, and the activity change was inactive: 5.59%. With O=[N+]([O-])c1cc(Oc2ccc([N+](=O)[O-])cc2C(F)(F)F)cc([N+](=O)[O-])c1 the activity change was inactive: -1.04%.
